Test results: patent publication US9758492B2, “IDO inhibitors” (Bristol-Myers Squibb Company, priority 2013, dated 2017)

By UniProt entry, the sequences of proteins in these tests, tags left out.
UniProt P14902, whole entry: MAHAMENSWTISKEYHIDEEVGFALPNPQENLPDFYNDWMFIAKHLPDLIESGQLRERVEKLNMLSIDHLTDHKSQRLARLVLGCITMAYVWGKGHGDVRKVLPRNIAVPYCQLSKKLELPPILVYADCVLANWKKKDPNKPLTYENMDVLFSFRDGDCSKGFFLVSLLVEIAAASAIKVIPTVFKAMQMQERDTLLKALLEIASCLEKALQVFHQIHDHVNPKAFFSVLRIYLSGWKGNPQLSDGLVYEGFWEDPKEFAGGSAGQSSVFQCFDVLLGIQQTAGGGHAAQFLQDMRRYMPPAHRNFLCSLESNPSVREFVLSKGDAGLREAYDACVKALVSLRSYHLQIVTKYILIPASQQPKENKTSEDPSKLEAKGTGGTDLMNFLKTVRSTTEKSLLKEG

Target: IDO (Homo sapiens, UniProt P14902)
Experiment: LLE_IDO_ABS_DR (IDO assay)
Details: read-out: LLE_IDO_ABS_DR (IC50)

Q: For `Cc1ccc(NC(=O)Nc2cc(-c3ccccc3C(=O)NS(=O)(=O)C3CC3)ccc2N(CC(C)C)CC(C)C)cc1`, which IC50 is on record?
A: Its IC50 is 810 nM.
